In patent publication US5998393A, “Methods for assessing 1,25(OH)2 D3 activity in skin and for enhancing the therapeutic use of 1,25(OH)2 D3” (priority 1997, dated 1999):

Test system: 24-hydroxylase mRNA
Test: 24-OHase mRNA induction in human skin in vivo after topical application (Northern blot)
Settings: for 24-OHase mRNA level: n=15

Compound | increase in 24-OHase mRNA induction (FIG. 1, single agents, 0.002% D3 or 0.1% 9cRA, topical, occluded 2 days) | 24-OHase mRNA level (FIG. 5, 0.002% 1,25(OH)2 D3, 0.1% 9-c-RA, or both, 48 h occlusion, maximum = 0.05% 1,25(OH)2 D3) | enhancement of 24-OHase mRNA level induced by a low dose of 1,25(OH)2 D3 (co-applied with low dose (0.002%) 1,25(OH)2 D3, discussion) | 24-OHase mRNA level (FIG. 6, 1,25(OH)2 D3, 0.1% t-RA, or both, two days occlusion) | increase in 24-OHase transcription level compared to 1,25(OH)2 D3 treatment alone (RA isomer (0.1%) added to 0.002% 1,25(OH)2D3) [%]
CC1=C(/C=C/C(C)=C\C=C\C(C)=C\C(=O)O)C(C)(C)CCC1 [9-c-RA, 9-cis retinoic acid] | no significant increase | did not change | synergistically enhance |  | 
CC1=C(/C=C/C(C)=C/C=C/C(C)=C/C(=O)O)C(C)(C)CCC1 [t-RA, All-trans-retinoic acid] |  |  |  | did not induce | 50
